Assay results taken from patent US20060281897A1, “Potentialization of the activation of high molecular weight prodrugs” (priority 2003, published 2006).

Tests used:
[1] = system: peptidases secreted by MCF-7/6 tumor cells; assay: Reactivation (hydrolysis) of prodrugs in medium conditioned by MCF-7/6 tumor cells, HPLC; conditions: MCF-7/6 conditioned medium, compound 20 μM, 6 hours, 37° C.
[2] = system: peptidases secreted by LS-174T tumor cells; assay: Reactivation (hydrolysis) of prodrugs in medium conditioned by LS-174T tumor cells, HPLC; conditions: LS-174T conditioned medium, compound 20 μM, 6 hours, 37° C.
[3] = at 6 hours, whole human blood, 37° C.
Protocol: The samples were incubated at 37° C. An extraction (for extraction method with acetonitrile, see Item 7.3 below) of each product was carried out in triplicate at time 0 and after 1, 2, 4 and 6 hours of incubation.
10 μl of internal standard (prolyl-daunorubicin) and […] 150 μl of acetonitrile were added into tubes containing 50 μl of the sample to be extracted. The tubes were stirred and centrifuged for 10 minutes to 13000 g. The supernatant was diluted 4 times in a formate buffer, pH 4, centrifuged, then analyzed by HPLC (see Item 7.3 below).
At different time points, the concentrations of the conjugates and possible metabolites formed were evaluated by HPLC. FIG. 7 illustrates the variations of the concentration of products based on the incubation time.

[4] = 24-hour incubation at 37° C. in culture medium containing 10% fetal calf serum, 20 μM
MCF-7/6 cells = assay: Cytotoxicity test (WST-1 cell viability); conditions: read-out: IC50 (50% inhibiting concentration), 48 hours incubation + 24 hours drug-free post-incubation

With `COc1cccc2c1C(=O)c1c(O)c3c(c(O)c1C2=O)C[C@@](O)(C(=O)CO)C[C@@H]3O[C@H]1C[C@H](NC(=O)[C@H](CC(C)C)NC(=O)[C@H](C)NC(=O)[C@H](CC(C)C)NC(=O)CCN)[C@H](O)[C@H](C)O1` [beta-ALAL-Dox, beta-alanyl-leucyl-alanyl-leucyl-doxorubicin, reference compound] the DOX concentration reached [1] was 1.45 µM, the L-DOX concentration reached [1] was 8.14 µM and the DOX concentration reached [2] was 0.22 µM. The L-DOX concentration reached [2] was 5.26 µM, the “hydrolysis: Dox formed” value [3] was 8% and the “hydrolysis: L-Dox (Leu-Dox) formed” value [3] was 10%. For the same compound, the stability [4] was “stable” and the IC50 (MCF-7/6 cells) was 158 µM.
